## Measured affinities in a library of Ab-14 heavy chain variants

Source: Li et al. 2023 (doi:10.1038/s41467-023-39022-2), MIT Lincoln Laboratory and A-Alpha Bio; data file from the FLAb repository.

All variants were tested on one target, the spike HR2 peptide PDVDLGDISGINAS (SARS-CoV-2).

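This is the validation round: designs drawn from the data on random variants, tested in the same kind of assay. Group labels follow the data file (Ctrl: baseline library sampled from a position-specific scoring matrix, with some repeated check sequences; Rand: our label for a block that the file lists under HC and that is probably the random mutants of the ten best first-round binders; En: ensemble of fine-tuned language models; GP: Gaussian process model; GPLM: also part of the Gaussian process libraries; HC: hill climbing; Gen: genetic algorithm; Gibbs: Gibbs sampling; a sequence that several methods proposed may carry one label only). In AlphaSeq, yeast of one mating type display the scFv and yeast of the other type display the target. Binding brings cells together so that they mate, and sequencing counts the barcode pairs among the diploids. Each replicate has its own calibration line, from reference interactions of the BCL2 family. There are six technical replicates.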

Parent: Ab-14, a human scFv built as VH, the linker GGGGSGGGGSGGGGS, VL. Only the CDRs of the heavy chain vary.
VH: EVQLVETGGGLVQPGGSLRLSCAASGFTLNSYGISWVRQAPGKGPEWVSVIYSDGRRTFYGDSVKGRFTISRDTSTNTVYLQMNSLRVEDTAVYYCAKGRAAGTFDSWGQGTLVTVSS
VL: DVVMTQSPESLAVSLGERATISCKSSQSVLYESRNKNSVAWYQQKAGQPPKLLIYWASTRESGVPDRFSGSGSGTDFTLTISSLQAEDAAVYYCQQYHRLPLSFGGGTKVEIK

Variants are written as CDR1, CDR2 and CDR3 of the heavy chain (limits as in the source). Parent: GFTLNSYGIS, VIYSDGRRTFYGDSVK, GRAAGTFDS. Numbers give log10(Kd / nM), so 0 is 1 nM and 3 is 1 µM. Smaller is tighter. The mean shown is taken over the replicates in which the pair was detected. "nd" means that the variant was in the library but no mating with the target was seen in that replicate; the authors take this as a sign of poor binding, and no number exists. Entries are sorted by rising average, undetected variants last. Nonspecific signal, from three strains lacking the peptide, appeared in 1% of pairings of all heavy chain designs, centred on 2.08 (5% of these signals below 0.84); values are not corrected for it. The control count says in how many pairings with the empty strains this scFv gave a signal, with their mean in brackets.

CDR-H1 | CDR-H2 | CDR-H3 | group | log10 Kd (nM) by replicate | mean, log10 nM | control signals
GFDLNEYGIS | VIYADGMRTYYADDVK | GGNAGTFDV | En_Gen | -0.82 -1.14 -0.85 -0.54 -1.04 -0.54 | -0.82 | 0/18
GFDLNEYGIS | VIYADGRRTFYADSVK | GNVAGTFLS | En_HC | -0.55 -0.81 -0.73 -0.93 -0.96 -0.59 | -0.76 | 1/18 (2.48)
GFDLNEYGIS | VIYADGMRTQYIDSVK | GETAGTFDS | En_HC | -0.49 -0.52 -0.78 -0.44 -0.81 -0.71 | -0.62 | 0/18
GFDLNEYGIS | VIYADGRRTFYADSVK | GQAAGTFDV | En_HC | -0.21 -0.66 -0.65 -0.49 -0.73 -0.49 | -0.54 | 0/18
GFDLDEYGIS | VIYADGMRTAYVDSVK | GNQAGTFDV | En_Gen | 0.14 -0.25 -0.57 -0.51 -0.44 -0.29 | -0.32 | 0/18
GFDLNEYGIS | VIYADGVRTQYADSVK | GENAGTFDV | En_Gen | -0.21 -0.34 -0.52 -0.51 -0.13 -0.21 | -0.32 | 0/18
GFDLNEYGIS | VIYADGRRTFYADSVK | GQTAGTFSV | En_HC | 0.00 -0.25 -0.25 -0.52 -0.55 -0.05 | -0.27 | 0/18
GFELNSYGIS | VIYSDGRRTFYIDSVK | GTTAGTFDS | GP_Gibbs | -0.36 -0.33 -0.24 -0.14 -0.46 0.08 | -0.24 | 0/18
GFELNSYGIS | VIYSDGRRTFYIDSVK | GREAGTFDT | GP_Gen | -0.29 -0.48 -0.25 -0.04 -0.20 -0.08 | -0.22 | 0/18
GFDLNEYGIS | VIYADGLRTFYTDSVK | GEVAGTFDS | En_HC | -0.35 -0.63 -0.40 -0.26 0.41 0.16 | -0.18 | 0/18
GFSLNDYGIS | VIYSDGRRTFYVDEVK | GRTAGTFDS | GP_Gibbs | 0.27 -0.16 0.01 -0.74 -0.17 -0.15 | -0.16 | 0/18
GFSLNSYGIS | VIYADGRRTFYGDSVK | GGAAGTFDS | GPLM_Gen | -0.19 -0.13 -0.02 -0.50 -0.25 0.19 | -0.15 | 0/18
GFTLNEYGIS | VIYSDGRRTFYIDSVK | GNAAGTFDS | GP_HC | 0.17 0.07 0.26 -0.03 0.27 -0.05 | 0.12 | 0/18
GFELNEYGIS | VIYSDGQRTFYGDSVK | GRTAGTFDS | GP_Gen | 0.44 0.16 0.28 -0.12 -0.09 0.32 | 0.17 | 1/18 (1.86)
GFDLNEYGIS | VIYADGVRTFYSDSVK | GNVAGTFDS | En_HC | 0.48 0.07 0.04 0.15 0.29 0.11 | 0.19 | 0/18
GFNLNEYGIS | VIYSDGRRTFYGDQVK | GKAAGTFDS | GP_Gibbs | nd 0.18 -0.14 -0.28 0.60 0.81 | 0.23 | 0/18
GFDLNEYGIS | VIYADGLRTAYADSVK | GNEAGTFDV | En_Gen | 0.51 0.75 0.25 0.20 0.22 -0.02 | 0.32 | 0/18
GFDIEEYGIS | VIYADGVRTMYTPNVK | GNILGLAMT | En_Gibbs | 1.13 -0.04 0.54 0.52 -0.21 0.49 | 0.41 | 1/18 (2.34)
GFNLNSYGIS | VIYSDGRRTFYDDSVK | GQLAGTFDS | GP_HC | 1.25 0.12 0.37 0.46 0.48 0.69 | 0.56 | 0/18
GFDLNSYGIS | VIYSDGRRTFYGDSVK | GCTAGTFDS | GP_Gen | 0.51 0.76 0.27 0.32 1.29 0.54 | 0.62 | 0/18
PFDLNSYGIS | VIYSDGRRTAYGDSVK | GRQAGTFDS | GP_Gen | 0.92 0.65 0.50 0.47 0.53 0.79 | 0.64 | 1/18 (2.70)
GFDLNEYGIS | VIYADGVRTSYVDSVK | GENAGTFDV | En_Gen | nd nd nd -0.80 1.88 1.38 | 0.82 | 0/18
GYSLDDYGIS | VIYADGKRTMYAESVK | GQIAGSLSN | En_Gibbs | 1.20 1.33 2.06 1.75 1.15 1.44 | 1.49 | 1/18 (2.06)
GFTLNSYGIS | VIYSDGRRTFYTDSVK | GKFAGTFDS | GP_HC | 1.41 1.33 1.19 1.84 1.89 1.67 | 1.56 | 0/18
GFTLNSYGIS | VIYSDGRRTFYGDSVK | GRAASTFDS | Ctrl | nd nd nd 2.50 0.94 nd | 1.72 | 1/18 (1.40)
GFTLNSYGIS | VIYSDGRRTFYGDSVK | GENAGTFDL | Ctrl | 1.92 1.74 2.01 1.65 1.53 1.47 | 1.72 | 1/18 (1.96)
GFTLNSYGIS | VIYSDGRRTFYGDSVK | VKHAGTFDS | Ctrl | nd 1.89 nd nd nd nd | 1.89 | 0/18
GFDIEEMGIS | VIYADGQRLFYADEVK | GENAGSFDM | En_Gibbs | nd nd nd nd 2.03 nd | 2.03 | 0/18
GFDLNSYGIS | VIYSDGRRTFYGDSVK | GRAAGMFWS | GPLM_HC | nd nd nd nd nd 2.10 | 2.10 | 0/18
GFDLSEYGIS | VIYADGRRFSYKDAVK | GQVEGMLDV | En_Gibbs | nd 2.19 nd nd nd nd | 2.19 | 0/18
GFTLNSYGIS | VIYSDGKRTFYGDSVK | GREAGIFDS | Ctrl | nd 3.12 2.51 nd nd 2.85 | 2.83 | 2/18 (3.13)
GFTLNEYGIS | VIYSDGRRTFYGDALK | GRAAVTFDQ | Rand | nd nd nd nd nd nd | nd | 0/18
GFTLNSFGIS | VIYSDGRRTFYGDSVK | GEAAATFDS | Ctrl | nd nd nd nd nd nd | nd | 1/18 (2.15)
GFKLDEQGIS | VIYADGRRVGYTDSVK | GTNGINFTL | En_Gibbs | nd nd nd nd nd nd | nd | 0/18
GFTLNDYGIS | VIYSDGRRTFYIDSVK | GKAAGTFIS | GP_HC | nd nd nd nd nd nd | nd | 0/18
GFDLEEMGVS | VIYHDGIRKAYKQKVK | GQFAGTFDV | En_Gibbs | nd nd nd nd nd nd | nd | 0/18
GFTLNSYGIS | VIYSDGRRTFYGDSVK | QRAAGTFDV | Ctrl | nd nd nd nd nd nd | nd | 0/18
GFDLNSYGIS | VIYSDGRRTFYGDSVK | GRIAGTFDV | GP_Gen | nd nd nd nd nd nd | nd | 0/18
KFTLNSYGIS | VIYSDGRRTSYGDSVK | GRSKGTFNS | Ctrl | nd nd nd nd nd nd | nd | 0/18
GFTLNSYGIS | VIYSDGRRTFYSDSVK | GRAAGTFIS | Ctrl | nd nd nd nd nd nd | nd | 0/18
GFTLNSYGIS | VIYSDGRRVFYGDSVK | GLAAGTWDS | Ctrl | nd nd nd nd nd nd | nd | 0/18
GFTLNSYGIS | VIYSDGSRTFYGPSVK | GRAAGTFDS | Ctrl | nd nd nd nd nd nd | nd | 0/18
GFTLNSYGVS | VIYSDGRRTFYGDSTK | GAAALTFSS | Ctrl | nd nd nd nd nd nd | nd | 0/18
GFSLNSYSIS | VIYSDGRRTFYGDSVK | GRAAGTFMS | Ctrl | nd nd nd nd nd nd | nd | 0/18
GFTLNDYGIS | VIYSDGRRTFYSDSPK | GRAAGFFYS | Rand | nd nd nd nd nd nd | nd | 0/18
GFGLNEYGIS | VIYADGVRTAYLQNVK | GIVSGFDQY | En_Gibbs | nd nd nd nd nd nd | nd | 0/18
GFTLNSYGIS | VIYSDGRRCSYRDSVK | GRPAGTFPS | Ctrl | nd nd nd nd nd nd | nd | 0/18

The first 5 entries again:

CDR-H1,CDR-H2,CDR-H3,group,log10 Kd (nM) by replicate,"mean, log10 nM",control signals
GFDLNEYGIS,VIYADGMRTYYADDVK,GGNAGTFDV,En_Gen,-0.82 -1.14 -0.85 -0.54 -1.04 -0.54,-0.82,0/18
GFDLNEYGIS,VIYADGRRTFYADSVK,GNVAGTFLS,En_HC,-0.55 -0.81 -0.73 -0.93 -0.96 -0.59,-0.76,1/18 (2.48)
GFDLNEYGIS,VIYADGMRTQYIDSVK,GETAGTFDS,En_HC,-0.49 -0.52 -0.78 -0.44 -0.81 -0.71,-0.62,0/18
GFDLNEYGIS,VIYADGRRTFYADSVK,GQAAGTFDV,En_HC,-0.21 -0.66 -0.65 -0.49 -0.73 -0.49,-0.54,0/18
GFDLDEYGIS,VIYADGMRTAYVDSVK,GNQAGTFDV,En_Gen,0.14 -0.25 -0.57 -0.51 -0.44 -0.29,-0.32,0/18

The authors averaged sequences with at least three values out of six and counted those with two or fewer as poor binders. The range of this assay differs from that of the first round, and the authors advise against merging the two.